According to patent publication US20220218682A1, “COMPOSITIONS AND METHODS FOR TREATING CANCER” (THE UNITED STATES GOVERNMENT AS REPRESENTED BY THE …, priority 2019, published 2022):

Key:
TNF = TNF protein in medium of brain cancer cells (GBM9), FIG. 1; type: cell-based; details: INH with afatinib
HCC827 and H3255 cells = test: AlamarBlue cell viability assay, oncogene addicted EGFR mutant cells; details: exogenous TNF with erlotinib

Compound	effect on TNF release / afatinib-induced TNF secretion (TNF)	protection from erlotinib-induced cell death (HCC827 and H3255 cells)
NNC(=O)c1ccncc1 [INH, Isoniazid]	can block TNF release; also recorded: blocked (or inhibited or suppressed)	–
TNF: Recombinant human TNF obtained from Peprotech	–	protects HCC827 and H3255 cells from erlotinib-induced cell death

“Also recorded” adds a separate entry of the source.
